According to PubChem BioAssay AID1159580 (chemical genetic matrix, 2015):
Only a part is listed here, and it is no random draw. Activity calls are given as the source filed them. Cut-off read from the data, not from the text of the source: active = normalized growth mostly below about 0.91 (no sharp cut-off); inconclusive = no clear call, values can overlap the other calls; inactive = mostly above about 0.92.

Test: chemical genetic growth profiling, strain panel (AID 1159580);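 note: tested at 20 µM; growth read once vehicle control cultures reached saturation at 30 °C; 1 = growth at the plate median or of vehicle wells; lower values mean less growth of the strain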
Settings: S. cerevisiae deletion strains, growth OD
[1] = locus YAL013W, strain DEP1, active compounds read low
[2] = locus YAL040C, strain CLN3, active compounds read low
[3] = locus YCL061C, strain MRC1 (second series), active compounds read low
[4] = locus YDR150W, strain NUM1, active compounds read low
[5] = locus YDR363W, strain ESC2, active compounds read low
[6] = locus YER002W, strain NOP16, active compounds read low
[7] = locus YGR078C, strain PAC10, active compounds read low
[8] = locus YJR075W, strain HOC1, active compounds read low
[9] = locus YMR307W, strain GAS1, active compounds read low
[10] = locus YNL153C, strain GIM3, active compounds read low
[11] = locus YNL175C, strain NOP13, active compounds read low
[12] = locus YNL197C, strain WHI3, active compounds read low
[13] = locus YNL224C, strain SQS1, active compounds read low
[14] = locus YOR083W, strain WHI5 (second series), active compounds read low
[15] = locus YPL241C, strain CIN2, active compounds read low
[16] = locus YNL322C, strain KRE1, active compounds read low
[17] = locus YMR263W, strain SAP30, active compounds read low
[18] = locus YNL128W, strain TEP1, active compounds read low

Measured: normalized growth

CN(C(=O)Cc1ccccc1)[C@@H]1CC[C@]2(CCCO2)C[C@H]1N1CCCC1
inactive: [1] 0.972 | [2] 0.99 | [3] 0.991 | [4] 0.991 | [5] 0.975 | [6] 0.989 | [7] 0.994 | [8] 0.979 | [9] 0.986 | [10] 0.995 | [11] 1 | [12] 0.976 | [13] 1 | [14] 0.992 | locus YPL055C, strain LGE1, active compounds read low 0.984 | [15] 1

CN(C(=O)Cc1ccc(Cl)c(Cl)c1)[C@@H]1CC[C@]2(CCCO2)C[C@H]1N1CCCC1
inactive: [1] 0.991 | [3] 1 | [5] 1.02 | [6] 0.992 | [7] 1.01 | [9] 0.991 | [10] 1.01 | [11] 0.991 | [12] 1.02 | [13] 0.998 | [16] 1.01 | [14] 1 | [15] 1.01

CN(C(=O)Cc1ccc(Cl)c(Cl)c1)[C@@H]1CCCC[C@H]1N1CCCC1
inactive: [2] 1.06 | [3] 1.01 | [4] 0.999 | [5] 1.01 | [6] 1 | locus YGR229C, strain SMI1, active compounds read low 1.03 | [8] 1.01 | [17] 1.01 | [9] 1 | [11] 1 | [12] 1 | [13] 1.01 | [14] 1.01 | [15] 1

CN(CCCl)Cc1cc(Cl)c(NC2=NCCN2)c(Cl)c1
inactive: [2] 0.984 | [5] 0.995 | [6] 0.98 | [7] 1.01 | [9] 0.991 | [11] 0.999 | [12] 0.972 | [13] 1 | [14] 0.982

CN(C(=O)Cc1ccc(Cl)c(Cl)c1)[C@H]1CCCC[C@@H]1N1CCCC1
inactive: [1] 1.03 | [2] 0.974 | [3] 0.978 | [4] 0.994 | [5] 1.02 | [6] 0.966 | [18] 1.02 | [11] 0.986 | [12] 0.956 | [13] 0.998 | [16] 1.02 | [14] 1.01 | [15] 0.99

CN(C(=O)Cc1ccc(Cl)c(Cl)c1)C1CCCCC1N1CCCC1 (stereo unspecified)
inactive: [1] 1.01 | [2] 0.987 | [3] 0.997 | [4] 0.993 | [5] 0.988 | [6] 1.01 | [7] 1.01 | [17] 0.995 | [9] 1.01 | [18] 1.02 | [11] 1.01 | [12] 1.04 | [13] 1.04 | [14] 0.994 | [15] 0.999

CN(C(=O)Cc1ccc(Cl)c(Cl)c1)[C@@H]1CCCC[C@@H]1N1CCCC1
inactive: [2] 1.01 | [3] 1 | [4] 0.993 | [5] 1.03 | [6] 1.01 | [17] 1 | [11] 1.01 | [12] 1.01 | [13] 1.02 | [14] 1.01 | [15] 0.994
